# Earlier results in patent US10695347B2, “Pyrimidine derivative and use thereof” (Hubei Bio-Pharmaceutical Industrial Technological Institute …, priority 2015, dated 2020).
# Tested on: ALK-positive NSCLC
# Conditions: cited from earlier work
# [1] = clinical trials, ALK-positive NSCLC
compound,measurement,setting,value
C[C@@H](Oc1cc(-c2cnn(C3CCNCC3)c2)cnc1N)c1c(Cl)ccc(F)c1Cl [Crizotinib],objective response rate,[1],around 60%
same,survival without cancer progression,[1],about 10 months
same,"occurring rate of most common side effects (visual impairment, nausea, diarrhea, vomiting, edema, constipation)",two clinical trials,above 25%
